# T1: purified human CD45 ectodomain (human CD45RABC antigen) (human, UniProt P08575 26-577)
# T1 construct: also called hCD45
# T1 sequence: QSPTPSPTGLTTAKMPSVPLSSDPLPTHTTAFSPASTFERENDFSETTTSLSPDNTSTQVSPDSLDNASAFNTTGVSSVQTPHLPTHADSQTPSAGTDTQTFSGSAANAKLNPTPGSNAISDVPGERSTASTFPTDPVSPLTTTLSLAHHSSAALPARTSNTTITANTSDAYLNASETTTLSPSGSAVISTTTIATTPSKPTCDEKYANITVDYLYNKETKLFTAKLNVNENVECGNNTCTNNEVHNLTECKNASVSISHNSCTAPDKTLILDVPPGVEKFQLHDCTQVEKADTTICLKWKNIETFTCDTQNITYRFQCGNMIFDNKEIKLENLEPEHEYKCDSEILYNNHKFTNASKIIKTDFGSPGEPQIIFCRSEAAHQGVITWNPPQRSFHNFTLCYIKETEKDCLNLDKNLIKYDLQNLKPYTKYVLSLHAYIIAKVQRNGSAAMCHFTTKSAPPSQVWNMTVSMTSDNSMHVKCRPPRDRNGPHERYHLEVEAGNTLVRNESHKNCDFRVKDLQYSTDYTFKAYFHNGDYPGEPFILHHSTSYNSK
# B1: Antibody 1 (Ab1) (antibody, V domains shown)
# VH: QVQLVESGGGLVKPGGSLRLSCAASGFTFSSYSMNWVRQAPGKGLEWVSYISSSSSTIYYADSVKGRFTISRDNAKNSLYLQMNSLRAEDTAVYYCARGGQYYYDSSRYGEVAFDIWGQGTMVTVSS
# VL: not shown
# notes: Fully human IgG from yeast display; also called Parent 1; parent clone Ab1
# Target: T1, purified human CD45 ectodomain (human …)
# Test: BLI (Octet Red96), IgG on anti-human Fc sensor, 100 nM CD45 ectodomain, 1:1 fit
binder,measurement,value
B1,Kd,109 nM

# Reference: patent US20220267441A1 (VOR BIOPHARMA, published 2022)
